Apparent affinities of Ab-91 variants for a coronavirus HR2 peptide

Target: peptide PDVDLGDISGINAS, taken from heptad repeat 2 (HR2) of SARS-CoV-2 spike.

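The starting antibody came from a phage panning campaign against this peptide. In library AAYL51, one, two or three CDR residues were substituted; doubles and triples were drawn at random. In AlphaSeq, yeast of one mating type display the scFv and yeast of the other type display the target. After mating in shaken culture at 30 °C for 16 h, diploids were selected and their barcode pairs sequenced. Each replicate has its own calibration line, from reference interactions of the BCL2 family. Each pool was mated in three replicate cultures.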

Parent: Ab-91, a human scFv built as VL, three GGGGS repeats, VH. Only the CDRs of the heavy chain vary.
VL: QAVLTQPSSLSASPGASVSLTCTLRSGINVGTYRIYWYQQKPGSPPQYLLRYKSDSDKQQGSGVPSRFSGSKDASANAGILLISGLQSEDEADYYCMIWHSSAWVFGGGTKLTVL
VH: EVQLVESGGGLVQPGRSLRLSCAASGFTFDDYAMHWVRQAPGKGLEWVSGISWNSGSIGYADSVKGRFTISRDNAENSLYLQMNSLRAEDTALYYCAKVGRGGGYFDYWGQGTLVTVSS

Variants are written as CDR1, CDR2 and CDR3 of the heavy chain (limits as in the source). Parent: GFTFDDYAMH, GISWNSGSIGYADSVK, VGRGGGYFDY.
Every variant below is changed at G50 of the VH (sequential numbering).
The Kd shown is the geometric mean over detected replicates; a lower Kd is a better binder.
A pair that was not seen in any replicate is written "nd"; this usually means weak binding, but a binder can also be missed.
Three control strains display no target. For library AAYL51, 21% of the pairings with them gave a signal, with a median of 34 µM and one signal in twenty below 1.8 µM, so weak values seen in few replicates may be background. For each scFv, signals with the empty controls are counted beside the result.
In this assay the parent's reference entry averaged 72 nM; its copy inside this library read 7.5 nM.

- GFTFDDYAMH / DISWNSGSIGYADSVK / FKRGGGYFDY: 230 µM (2 of 3 replicates; controls 5 of 9)
- GFTFDDYAMH / QISWNSGQNGYADSVK / VGRGGGYFDY: nd (0 of 3 replicates; controls 0 of 9)
- GFTFDDYQMH / WISWNSGSIGYADSVK / VGRGGGYADY: nd (0 of 3 replicates; controls 1 of 9)
- GFRFDDYAMH / WISGNSGSIGYADSVK / VGRGGGYFDY: 160 µM (3 of 3 replicates; controls 8 of 9)
- GFTFDKYAMH / FISWNSGSIGYEDSVK / VGRGGGYFDY: 1.1 µM (1 of 3 replicates; controls 1 of 9)
- GFTFDDYAMH / RISWNSGSIGYADSVK / VGRGGGYFDY: 150 µM (2 of 3 replicates; controls 2 of 9)
- GFTFDDYAMH / LISWNSGSIGYADSVK / VGRGGGYFDY: nd (0 of 3 replicates; controls 0 of 9)
- GFTFDDYAMH / MISWNSGSIGYADSVK / VNVGGGYFDY: 180 µM (1 of 3 replicates; controls 0 of 9)
- GFTFDDYAMH / MISWNSGSIGYAASVK / VGRPGGYFDY: nd (0 of 3 replicates; controls 1 of 9)
- GFTFDDYAMH / PISWNSGSIGYADSVK / VGRGGGYFDY: 59 µM (1 of 3 replicates; controls 0 of 9)
- GFTFDDIAMH / DISWNSGSIGYADSVK / VGRGMGYFDY: nd (0 of 3 replicates; controls 0 of 9)
- GFTFDDYAMH / EISKNSGSIGYADSVK / VGRGGGYFDY: 1.3 mM (1 of 3 replicates; controls 4 of 9)
- GKTFDDYAMH / IISWNSGSIGYADSVK / VGRGGRYFDY: nd (0 of 3 replicates; controls 4 of 9)
- GFTFCDYAMH / CLSWNSGSIGYADSVK / VGRGGGYFDY: 57 µM (2 of 3 replicates; controls 1 of 9)
- GFTFDDYAMH / QIAWNSGSIGYADSVK / VGRDGGYFDY: nd (0 of 3 replicates; controls 0 of 9)
- KFTFDDYAMH / SISKNSGSIGYADSVK / VGRGGGYFDY: 23 µM (1 of 3 replicates; controls 1 of 9)
- GFTFDVYAMH / CISWWSGSIGYADSVK / VGRGGGYFDY: 14 µM (2 of 3 replicates; controls 0 of 9)
- HFTFDDYGMH / QISWNSGSIGYADSVK / VGRGGGYFDY: 36 µM (1 of 3 replicates; controls 0 of 9)
- GFTFDDDAQH / DISWNSGSIGYADSVK / VGRGGGYFDY: nd (0 of 3 replicates; controls 0 of 9)
- GFTFDDYVMH / DISWNSGSIGVADSVK / VGRGGGYFDY: nd (0 of 3 replicates; controls 0 of 9)
- GFTFDDYAMH / NISWNSASIGYADHVK / VGRGGGYFDY: 230 µM (2 of 3 replicates; controls 4 of 9)
- GFTFDDYAAH / EISLNSGSIGYADSVK / VGRGGGYFDY: nd (0 of 3 replicates; controls 0 of 9)
- GFNFDDYAMH / EISWNSGSIGYADSVK / VGRGGGYSDY: nd (0 of 3 replicates; controls 0 of 9)
- GFTFDDYAMH / KISWNSGSIGYADSVK / IGRGGGYFDY: 8.6 µM (2 of 3 replicates; controls 3 of 9)
- GFTFDDYAMH / WISWNSGSIGYADSVS / VGRRGGYFDY: 45 µM (3 of 3 replicates; controls 6 of 9)
- GFTQDDYAMH / VISWGSGSIGYADSVK / VGRGGGYFDY: 28 µM (1 of 3 replicates; controls 1 of 9)
- GFTFDDYAMH / MISWNSGSIGYADSVK / VGRGGGYFDA: nd (0 of 3 replicates; controls 0 of 9)
- GFTFDDYAMH / PISWNSGSIGYADSVK / MGRGGFYFDY: 160 µM (1 of 3 replicates; controls 1 of 9)
- GFTFDDYAMH / HISWISGSIGYADSHK / VGRGGGYFDY: 1.4 µM (1 of 3 replicates; controls 2 of 9)
- GFTFDPYAMH / PISWCSGSIGYADSVK / VGRGGGYFDY: nd (0 of 3 replicates; controls 0 of 9)
- GFTFDDYAMY / VISWNSGSIGYADSVK / VGRGGIYFDY: 11 µM (1 of 3 replicates; controls 0 of 9)
- GFTFDDYAMN / WISWNKGSIGYADSVK / VGRGGGYFDY: 14 µM (2 of 3 replicates; controls 4 of 9)
- GFTFNDYAMH / NISWNSGSIGYADSVK / VGRGGGYFDY: 28 µM (1 of 3 replicates; controls 2 of 9)
- GFTFDDYAMC / DISWNSGIIGYADSVK / VGRGGGYFDY: nd (0 of 3 replicates; controls 0 of 9)
- GFTFDDIAMH / DISWNSGSIKYADSVK / VGRGGGYFDY: 140 µM (2 of 3 replicates; controls 2 of 9)
- GGTFDDYAMH / LISWNSESIGYADSVK / VGRGGGYFDY: 52 µM (1 of 3 replicates; controls 1 of 9)
- WFTFDDYAMH / AISWNSGSIGDADSVK / VGRGGGYFDY: nd (0 of 3 replicates; controls 2 of 9)
- GFTFDDYAMH / FISWNSQSIGYADSVK / VGRGGGYFIY: 91 µM (3 of 3 replicates; controls 7 of 9)
- GFTFDDYAMH / VIKWNSGSIGYADSVK / CGRGGGYFDY: nd (0 of 3 replicates; controls 2 of 9)
- GFTFDDYAMH / AISWNSFSIGYADSVC / VGRGGGYFDY: 11 µM (1 of 3 replicates; controls 3 of 9)
- GFTFDDFAMH / MISWNSGSIGYAVSVK / VGRGGGYFDY: nd (0 of 3 replicates; controls 0 of 9)

The closing 4 entries, repeated:

CDR-H1,CDR-H2,CDR-H3,Kd,detected,empty controls
GFTFDDYAMH,FISWNSQSIGYADSVK,VGRGGGYFIY,91 µM,3 of 3,7 of 9
GFTFDDYAMH,VIKWNSGSIGYADSVK,CGRGGGYFDY,nd,0 of 3,2 of 9
GFTFDDYAMH,AISWNSFSIGYADSVC,VGRGGGYFDY,11 µM,1 of 3,3 of 9
GFTFDDFAMH,MISWNSGSIGYAVSVK,VGRGGGYFDY,nd,0 of 3,0 of 9

Values reported by Engelhart et al. 2022, doi:10.1038/s41597-022-01779-4 (FLAb copy).